Assay results as given in ChEMBL document CHEMBL1148369, “Novel S-substituted aminoalkylamino ethanethiols as potential antidotes against sulfur mustard toxicity” (2004).

Test system: Mus musculus
Assay: LD50 following oral dosing.

For `NCCCNCCSP(=O)(O)O`, the LD50 was 1050 mg/kg.
